Source: publication PMC7084345, “Differential Inhibitory Actions of Multitargeted Tyrosine Kinase Inhibitors on Different Ionic Current Types in Cardiomyocytes” (International Journal of Molecular Sciences, 2020)

Target: T1, KV7.1 (KCNQ1) channel, IK(S) (Rattus norvegicus, UniProt Q9Z0N7)
T1 construct: native IK(S) in H9c2 cells
T1 sequence (Q9Z0N7 1-669): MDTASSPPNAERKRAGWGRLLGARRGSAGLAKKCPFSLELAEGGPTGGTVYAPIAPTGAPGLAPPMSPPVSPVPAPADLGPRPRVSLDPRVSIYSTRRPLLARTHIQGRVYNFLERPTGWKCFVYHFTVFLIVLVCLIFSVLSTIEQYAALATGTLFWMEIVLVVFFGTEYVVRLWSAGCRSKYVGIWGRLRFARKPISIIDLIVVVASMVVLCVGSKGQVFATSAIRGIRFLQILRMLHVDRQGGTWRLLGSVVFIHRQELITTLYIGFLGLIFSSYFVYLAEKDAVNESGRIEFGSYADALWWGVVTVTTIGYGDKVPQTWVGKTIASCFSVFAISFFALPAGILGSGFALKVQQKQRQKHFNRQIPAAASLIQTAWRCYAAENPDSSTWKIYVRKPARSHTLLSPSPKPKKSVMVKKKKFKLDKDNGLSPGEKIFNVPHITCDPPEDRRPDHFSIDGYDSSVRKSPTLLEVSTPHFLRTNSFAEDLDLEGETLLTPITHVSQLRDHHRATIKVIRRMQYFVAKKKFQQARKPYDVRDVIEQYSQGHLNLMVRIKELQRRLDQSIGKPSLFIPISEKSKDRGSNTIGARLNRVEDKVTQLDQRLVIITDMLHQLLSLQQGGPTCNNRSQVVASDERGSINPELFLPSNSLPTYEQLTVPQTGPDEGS
Test: whole-cell patch clamp of native IK(S) in H9c2 cells
Assay type: cell-based

## CNC(=O)c1cc(Oc2ccc(NC(=O)Nc3ccc(Cl)c(C(F)(F)F)c3)cc2)ccn1 [SOR, sorafenib]
  IC50: 1690 nM
